Measurements reported in ChEMBL document CHEMBL5390258, “Recent Progress and Prospects of Small Molecules for NLRP3 Inflammasome Inhibition” (J Med Chem, 2023).

Sequences of proteins named here, by UniProt entry; tags and fusion partners are left off.
UniProt Q8R4B8, whole entry, looked up: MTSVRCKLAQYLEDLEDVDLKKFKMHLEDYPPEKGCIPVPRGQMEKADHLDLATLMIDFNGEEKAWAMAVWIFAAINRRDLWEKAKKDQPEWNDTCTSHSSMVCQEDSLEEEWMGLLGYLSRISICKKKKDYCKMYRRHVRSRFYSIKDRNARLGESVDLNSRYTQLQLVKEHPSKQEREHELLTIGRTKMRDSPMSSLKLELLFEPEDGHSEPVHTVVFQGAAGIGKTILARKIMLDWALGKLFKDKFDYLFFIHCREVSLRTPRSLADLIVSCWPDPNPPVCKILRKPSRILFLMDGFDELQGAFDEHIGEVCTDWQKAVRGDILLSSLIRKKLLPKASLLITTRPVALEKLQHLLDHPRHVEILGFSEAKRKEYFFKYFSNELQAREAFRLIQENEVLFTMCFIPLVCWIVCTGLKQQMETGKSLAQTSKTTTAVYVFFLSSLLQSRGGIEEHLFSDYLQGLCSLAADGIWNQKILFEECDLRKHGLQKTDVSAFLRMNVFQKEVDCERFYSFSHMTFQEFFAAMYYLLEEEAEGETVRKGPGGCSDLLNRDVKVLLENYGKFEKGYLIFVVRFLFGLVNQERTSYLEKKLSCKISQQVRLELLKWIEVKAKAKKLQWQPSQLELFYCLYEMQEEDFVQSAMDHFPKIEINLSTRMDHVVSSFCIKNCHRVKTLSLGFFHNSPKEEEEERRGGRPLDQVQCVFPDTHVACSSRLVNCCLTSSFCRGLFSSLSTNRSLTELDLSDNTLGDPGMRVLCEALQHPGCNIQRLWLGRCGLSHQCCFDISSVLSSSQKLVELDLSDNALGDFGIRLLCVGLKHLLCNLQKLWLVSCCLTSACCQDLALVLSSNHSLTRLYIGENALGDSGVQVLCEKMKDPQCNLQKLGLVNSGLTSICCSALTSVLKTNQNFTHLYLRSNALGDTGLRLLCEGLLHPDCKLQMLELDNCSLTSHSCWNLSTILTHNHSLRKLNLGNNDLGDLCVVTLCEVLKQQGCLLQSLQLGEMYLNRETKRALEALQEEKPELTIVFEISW
UniProt Q96P20, whole entry, looked up: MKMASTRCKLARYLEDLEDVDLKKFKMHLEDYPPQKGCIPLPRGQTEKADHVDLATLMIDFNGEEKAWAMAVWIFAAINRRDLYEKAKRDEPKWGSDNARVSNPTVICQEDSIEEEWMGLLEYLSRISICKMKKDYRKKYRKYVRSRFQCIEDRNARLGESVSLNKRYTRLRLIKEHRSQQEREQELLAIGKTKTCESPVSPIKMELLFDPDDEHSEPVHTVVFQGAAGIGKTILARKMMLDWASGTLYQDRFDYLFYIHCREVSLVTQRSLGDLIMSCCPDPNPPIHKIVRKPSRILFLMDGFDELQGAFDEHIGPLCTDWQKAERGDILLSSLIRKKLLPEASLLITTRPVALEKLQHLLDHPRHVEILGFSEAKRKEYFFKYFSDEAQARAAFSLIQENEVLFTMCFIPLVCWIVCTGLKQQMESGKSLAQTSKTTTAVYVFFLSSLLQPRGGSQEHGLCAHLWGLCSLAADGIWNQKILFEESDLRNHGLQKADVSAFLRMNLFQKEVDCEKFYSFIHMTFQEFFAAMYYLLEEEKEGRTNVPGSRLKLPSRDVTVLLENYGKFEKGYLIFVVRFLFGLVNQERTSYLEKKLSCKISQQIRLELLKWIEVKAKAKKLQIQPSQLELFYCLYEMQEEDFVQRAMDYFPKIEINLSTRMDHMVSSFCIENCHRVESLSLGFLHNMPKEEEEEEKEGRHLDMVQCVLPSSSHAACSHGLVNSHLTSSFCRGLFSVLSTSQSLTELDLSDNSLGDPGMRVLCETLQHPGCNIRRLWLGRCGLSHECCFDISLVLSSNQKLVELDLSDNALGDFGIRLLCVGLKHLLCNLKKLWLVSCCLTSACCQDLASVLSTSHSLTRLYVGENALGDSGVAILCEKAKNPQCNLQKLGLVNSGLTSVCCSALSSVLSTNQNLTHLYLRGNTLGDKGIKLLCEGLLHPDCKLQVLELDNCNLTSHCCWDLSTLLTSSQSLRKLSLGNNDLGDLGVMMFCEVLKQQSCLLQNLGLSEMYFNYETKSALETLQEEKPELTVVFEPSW

Legend:
[1] = target: NACHT, LRR and PYD domains-containing protein 3 (Mus musculus, UniProt Q8R4B8); test: Inhibition of NLRP3 in mouse BMDM cells assessed as reduction in IL-1beta production
[2] = target: NACHT, LRR and PYD domains-containing protein 3 (Homo sapiens, UniProt Q96P20); test: Binding affinity to GFP-flag-tagged human NLRP3 transfected in HEK293T cells assessed as equilibrium dissociation constant measured after 40 mins by MST assay

O=C(CBr)C1CC([N+](=O)[O-])([N+](=O)[O-])C1
IC50 [1]: 117 nM | Kd [2]: 20.8 nM
